This note sets out measurements from article PMC4338550 (Nature, 2014).

For this assay, the target named is rabbit ryanodine receptor RyR1 (rabbit, UniProt P11716). The experiment in a line: cryo-EM structure.

B1: glutathione-S-transferase (GST) fused FKBP12 (natural protein)
chain: not shown
B1: the binding result is recorded as “binds”.
